# Antibody variant affinities, Ab-14 heavy chain, assay B

From the AlphaSeq antibody data of Li et al. 2023 (doi:10.1038/s41467-023-39022-2), copy in the FLAb collection.

Target peptide (SARS-CoV-2 spike, HR2 region): PDVDLGDISGINAS

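Phage display of a naive human antibody library on the peptide gave the parent. Designed CDR sequences, proposed from the first random library and measured here. Group labels follow the data file (Ctrl: baseline library sampled from a position-specific scoring matrix, with some repeated check sequences; Rand: our label for a block that the file lists under HC and that is probably the random mutants of the ten best first-round binders; En: ensemble of fine-tuned language models; GP: Gaussian process model; GPLM: also part of the Gaussian process libraries; HC: hill climbing; Gen: genetic algorithm; Gibbs: Gibbs sampling; a sequence that several methods proposed may carry one label only). The assay is AlphaSeq: two haploid yeast populations carry antibody and antigen on their surface. Pairs that bind mate more often; barcode pairs of the diploids are counted by sequencing. Read counts were normalised to the haploid input and turned into Kd by a linear fit to BCL2-family pairs of known affinity, for each replicate. Each pool was mated in six replicate cultures.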

Ab-14 is the parent antibody, in scFv form: VH, then a (GGGGS)3 linker, then VL. The light chain is unchanged in all variants.
VH: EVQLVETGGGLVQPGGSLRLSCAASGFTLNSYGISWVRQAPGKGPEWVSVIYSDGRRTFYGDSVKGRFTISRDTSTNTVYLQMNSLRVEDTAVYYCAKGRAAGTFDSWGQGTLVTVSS
VL: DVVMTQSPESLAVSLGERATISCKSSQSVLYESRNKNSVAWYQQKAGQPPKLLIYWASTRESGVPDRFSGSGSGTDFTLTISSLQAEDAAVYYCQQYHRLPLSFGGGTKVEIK

Each variant is given by its three heavy chain CDRs, as the data file delimits them; those of the parent are GFTLNSYGIS, VIYSDGRRTFYGDSVK, GRAAGTFDS.
Kd is apparent (estimated from mating counts) and averaged on the log scale over replicates with a signal. Smaller is tighter.
"no signal" marks a missing value. The strain was present, yet no cells mated with the target were sequenced in any replicate, which points to weak or no binding.
Values of this round are not directly comparable with the first-round values of the same sequences.

CDR-H1,CDR-H2,CDR-H3,group,apparent Kd,replicates with signal,control signals
GFTLNEYGIS,VIYSDGRPTFYTDSVK,GRIAGTFDG,Rand,220 nM,1 of 6,0 of 18
GFTLNSYFIS,VIYSDGRRTFYTDSWK,GRFAGTFDS,Rand,no signal,0 of 6,1 of 18
GFDLDEYGIS,VIYADGRRTFYADSVK,GTLAGTFDI,En_HC,170 pM,6 of 6,0 of 18
GFDLNEYGIS,VIYADGVRKAYADDVK,GNNAGTFDV,En_Gen,310 pM,6 of 6,0 of 18
GFDLDEYGIS,VIYADGMRTFYTDSVK,GEAAGTFDI,En_HC,2.0 nM,6 of 6,1 of 18
GFDLNDYGIS,VIYADGMRTAYIDSVK,GEQAGTFDL,En_HC,660 pM,6 of 6,0 of 18
GFTLNDYGIS,VIYSDGRRTFYTDSVK,GRFAGTFDA,GP_HC,2.2 nM,6 of 6,0 of 18
GFSLNSYGIS,VIYSDGRRTFYSDRVK,GREAGTFDS,GP_Gibbs,1.2 nM,6 of 6,0 of 18
GFTLNEYGIS,VIYSDGKRTFYGDSVK,GRTAGTFWS,GP_Gen,67 nM,1 of 6,0 of 18
GFTLNSYGIS,VIYSDGQRTFYSDSVK,GKAAGTFDS,GPLM_Gen,3.5 nM,6 of 6,0 of 18
GFNLNSYGIS,VIYSDGRRVFYGDSVK,GRAAGTFDS,Ctrl,no signal,0 of 6,1 of 18
GKDLQEYGIS,VIYADGMRVAYTDSVK,GTQGISNIE,En_Gibbs,no signal,0 of 6,1 of 18
GFQLNSYGIS,VIYSDGRRTFYGDSVK,GRTAGTFDM,GP_Gibbs,3.0 nM,6 of 6,0 of 18
GFSLNDYGIS,VIYSDGKRTFYGDSVK,GRTAGTFDS,GPLM_Gen,400 pM,6 of 6,0 of 18
GFDLNEYGIS,VIYADGRRTAYADSVK,GNTAGTFLS,En_HC,1.2 nM,6 of 6,0 of 18
GFDLDEYGIS,VIYADGQRTAYADSVK,GGNAGTFDI,En_Gen,1.0 nM,6 of 6,2 of 18
GKTLNQYGIS,VIYSDGRRTFYSDSVK,GRAAGFFDS,Rand,no signal,0 of 6,0 of 18
GFDLNEYGIS,VIYADGVRTAYVDSVK,GENAGTFDT,En_Gen,1.9 nM,4 of 6,0 of 18
GFTLNDYGIS,VIYSDGRRTFYGDSVK,NRAALTFIS,Rand,no signal,0 of 6,1 of 18
GFDLNEYGIS,VIYADGRRTFYSDSVK,GTAAGTFDI,En_HC,400 pM,6 of 6,0 of 18
GFTLNSYGIS,VIYSDGRRTAYGDSFK,GWAAGRFDS,Ctrl,no signal,0 of 6,0 of 18
GFSLNSYGIS,VIYSDGRRTFYGDSVK,GTWAGKFDS,Ctrl,1.5 nM,6 of 6,0 of 18
GFSLNSYGIS,VIYSDGRRTFYGDSVK,GRTAGMFDS,GPLM_Gen,no signal,0 of 6,0 of 18
GFDLNEYGIS,VIYADGSRKFYADSVK,GNTAGTFDV,En_HC,1.2 nM,6 of 6,1 of 18
GFDLNSYGIS,VIYSDGRRTFYGDSVK,GRAAWTFNK,GP_HC,no signal,0 of 6,0 of 18
GRTLNSYGIS,VIYSDGRRTFYGDSVK,VRAAGTFDA,Ctrl,no signal,0 of 6,0 of 18
GFDLNSYGIS,VIYSDGRRTFYGDSVK,GKAAGCFNS,GPLM_HC,no signal,0 of 6,0 of 18
GFDLDEYGIS,VIYADGMRTAYADNVK,GQVAGTFDL,En_Gen,260 pM,6 of 6,0 of 18
GFDIDEYGIS,VIYADGLRVFYKNRVK,GMYSGVIDM,En_Gibbs,no signal,0 of 6,0 of 18
GFSLDEYGIS,VIYADGMRTFYQDDVK,GNVAGTFDS,En_HC,300 pM,6 of 6,0 of 18
GFTLNDYGIS,VIYSDGRRPQYIDSVK,KRAAGTFDS,Rand,200 nM,1 of 6,0 of 18
GFDLNEYGIS,VIYADGRRTFYADSVK,GSEAGTFVM,En_HC,23 nM,4 of 6,0 of 18
GFELNNYGIS,VIYSDGRRTFYGDSVK,GRTAGTFDS,GPLM_Gen,1.1 nM,6 of 6,0 of 18
GFSLNEYGIS,VIYSDGRRTFYGDRVK,GQTAGTFDS,GP_Gibbs,1.2 nM,6 of 6,2 of 18
GFTLNEYGIS,VIYSDGRRTFYGDSVK,GRAAVTFWQ,GPLM_HC,no signal,0 of 6,0 of 18
HFQLNEYGIS,VIYSDGRRTFYGDSVK,GRTAGTFDS,GPLM_Gibbs,no signal,0 of 6,0 of 18
GFPLDEYGIS,VIYADGIRTHYSNSVK,GTIGGTFFQ,En_Gibbs,120 nM,5 of 6,1 of 18
GFDLNEYGIS,VIYADGKRTAYVDSVK,GNVAGTFDI,En_Gen,230 pM,6 of 6,0 of 18
GFNLNEYGIS,VIYADGRRTFYADSVK,GQTAGTFDV,En_HC,1.0 nM,6 of 6,0 of 18
GFTLNEYGIS,VIYSDGRRTFYIDSVK,GREAGTFDV,GP_HC,950 pM,6 of 6,0 of 18
GFDLNEYGIS,VIYADGRRTFYADSVK,GEIAGTFDS,En_HC,220 pM,6 of 6,1 of 18
GFWLNSYGVS,VIYSDGRRTFYADSVK,GRAPGKFNW,Ctrl,29 nM,4 of 6,1 of 18
GNSLDEYGIS,VIYADGMRTAYTDAFK,GVGSNTLVD,En_Gibbs,no signal,0 of 6,0 of 18
GFTLNSYGIS,VIYSDGMRTFYGDSVK,GRKAGMFDQ,Ctrl,no signal,0 of 6,0 of 18
GFELDEYGIS,VIYADGKRVSYASSVK,GKFRVDIAA,En_Gibbs,no signal,0 of 6,0 of 18
GFTLNDYGIS,VIYSDGRRTQYIDSVK,GHAAGTFDS,GPLM_HC,3.0 nM,6 of 6,0 of 18
GFELNSYGIS,VIYSDGRRTQYIDSVK,GRAAGTFDS,GP_HC,4.4 nM,2 of 6,0 of 18
GFDLNSYGIS,VIYSDGRRTFYHDSVK,GQEAGTFDS,GP_Gen,1.1 nM,6 of 6,1 of 18
GFTINSYGIS,VIYADGRRTFYGDDVK,GRAAGTFDS,Ctrl,1.1 nM,6 of 6,1 of 18
GFTLNDYGIS,VIYSDGRRTFYSDSVK,GRAAGMFDS,GP_HC,160 nM,3 of 6,0 of 18
GFTLNMYGIS,VIYSDGRRTFYGDSVK,GRQAGTFDS,Ctrl,130 nM,4 of 6,0 of 18
GFDLNEYGIS,VIYADGRRTFYSDSVK,GTVAGTFDK,En_HC,270 pM,6 of 6,0 of 18
GFDINEYGIS,VIYADGQREYYAESVK,GFNQTINVV,En_Gibbs,no signal,0 of 6,0 of 18
GFTLNSYGIS,VIYSDGRRTLYGDSVV,GQGAGTFDS,Ctrl,no signal,0 of 6,0 of 18
GFNLNQYGIS,VIYSDGRRVAYGDSVK,GRAAGTFDS,Ctrl,1.2 nM,6 of 6,0 of 18
GFQLNEYGIS,VIYSDGRRTFYSDSVK,GRTAGTFDS,GPLM_Gibbs,590 pM,6 of 6,0 of 18
GFDLNEYGIS,VIYADGMRTSYADNVK,GNVAGTFDV,En_Gen,510 pM,6 of 6,0 of 18
GFTLGSYGIS,VIYSDGRRTFYDDSVK,GRAAGTGDS,Ctrl,no signal,0 of 6,1 of 18
GFSLNEYGIS,VIYSDGRRTFYGDSVK,GRQAGTFDS,GPLM_Gen,580 pM,6 of 6,1 of 18
GFTLNSYGIS,VIYADGRRTFYGDSVK,GRIAGTFKS,GP_HC,5.8 nM,6 of 6,0 of 18
GFTLNSYGIS,VIYSDGRRTFYGDSVK,WRAMGTFDS,Ctrl,no signal,0 of 6,0 of 18
GFDLDEYGIS,VIYADGSRTAYSDSVK,GNVAGTFDL,En_Gen,350 pM,6 of 6,1 of 18
GFTLNSYGIS,VIYSDGRRTFYADAVK,GKEAGTFDS,GP_Gibbs,no signal,0 of 6,0 of 18
GFTLNMYGIS,VIYSDGRRTFYGDSVK,GRFAGTFDS,Ctrl,19 nM,4 of 6,0 of 18

Extract of 6 entries:

CDR-H1,CDR-H2,CDR-H3,group,apparent Kd,replicates with signal,control signals
GFPLDEYGIS,VIYADGIRTHYSNSVK,GTIGGTFFQ,En_Gibbs,120 nM,5 of 6,1 of 18
GFDLDEYGIS,VIYADGQRTAYADSVK,GGNAGTFDI,En_Gen,1.0 nM,6 of 6,2 of 18
GFDLDEYGIS,VIYADGMRTAYADNVK,GQVAGTFDL,En_Gen,260 pM,6 of 6,0 of 18
GFSLNSYGIS,VIYSDGRRTFYGDSVK,GRTAGMFDS,GPLM_Gen,no signal,0 of 6,0 of 18
HFQLNEYGIS,VIYSDGRRTFYGDSVK,GRTAGTFDS,GPLM_Gibbs,no signal,0 of 6,0 of 18
GFTLNMYGIS,VIYSDGRRTFYGDSVK,GRQAGTFDS,Ctrl,130 nM,4 of 6,0 of 18

Background: pairings of all heavy chain designs with three empty control strains gave a value in 1% of cases (median 120 nM, 5th percentile 7.0 nM). Values in that range, when seen in few replicates, are hard to tell from nonspecific mating. Also given: how often the same scFv was detected with the empty control strains.
Of ten entries with the parent sequence, four were seen in most replicates (averages 2.2 nM to 240 nM), three in one and three in none, so single entries are noisy.
The authors averaged sequences with at least three values out of six and counted those with two or fewer as poor binders.